Laboratory results taken from patent US9751932B2, “Anti-big-endothelin-1 (big-ET-1) antibodies and uses thereof” (Regeneron Pharmaceuticals, Inc., priority 2012, dated 2017).

How the values were obtained:
[1] = molecular target: T1, human big-ET-1 (SEQ ID NO:434) (Homo sapiens, UniProt P05305); experiment: Surface plasmon resonance (Biacore) binding, mAb capture format, 37° C.
T1 sequence (P05305 53-90 limits assumed): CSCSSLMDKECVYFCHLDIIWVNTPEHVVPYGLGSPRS
Description: (§1) Measurements were conducted on a T200 Biacore instrument (Biacore Life Sciences division of GE Healthcare, Piscataway, N.J.). […] Different concentrations of small-ET-1 (SEQ ID NO:435), human big-ET-1 (SEQ ID NO:434) or mouse big-ET-1 (SEQ ID NO:437) were injected over the anti-big-ET-1 captured surfaces at a flow rate of 100 μl/min. Peptide binding was monitored for 3 min while dissociation of mAb-bound peptide was monitored for 4 min in HBST running buffer (0.01 M HEPES pH 7.4, 0.15 M NaCl, 3 mM EDTA, 0.005% v/v Surfactant P20). Kinetic association (ka) and dissociation (kd) rate constants were determined by processing and fitting the data to a 1:1 binding model using Scrubber 2.0 curve fitting software.

[2] = molecular target: T2, mouse big-ET-1 (SEQ ID NO:437) (Mus musculus, UniProt P22387); experiment: as above
T2 sequence (P22387 53-91 limits assumed): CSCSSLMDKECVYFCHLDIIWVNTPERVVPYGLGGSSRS
Description: as §1

[3] = analyte human big-ET-1, mAb capture

- binding to human big-ET-1 (in words) [1]: high affinity binding
- ka [1, 3]: 818000 M/s
- kd [1, 3]: 0.00437 s⁻¹
- binding to mouse big-ET-1 (in words) [2]: did not show any binding
- Kd ([2]; analyte mouse big-ET-1, mAb capture, KD=kd/ka): > 1 µM
B1: H4H6335P: anti-big-ET-1 antibody, human IgG4 Fc; HCVR/LCVR SEQ ID NO: 274/282 (antibody, V domains shown)
VH: EVQLVESGGGLVKPGGSLRLSCAASGFTFSNDWMSWVRQAPGKGLEWVGRIKRKTDGGTTDYAAPVKGRFTISRDDSKNTLYLQMNSLKTEDTAVYYCTTGGYERGGQGTLVTVSS
VL: [omitted - about 100 residues]LTFGGGTKVEIK
modifications: human IgG4 Fc
